# Test results from PMC3961306, “Comparison of the Cancer Gene Targeting and Biochemical Selectivities of All Targeted Kinase Inhibitors Approved for Clinical Use” (PLoS ONE, 2014).
# By UniProt entry, the sequences of proteins in these tests, tags left out. Residues count along the entry.
# UniProt P10721, 26-976 V654A: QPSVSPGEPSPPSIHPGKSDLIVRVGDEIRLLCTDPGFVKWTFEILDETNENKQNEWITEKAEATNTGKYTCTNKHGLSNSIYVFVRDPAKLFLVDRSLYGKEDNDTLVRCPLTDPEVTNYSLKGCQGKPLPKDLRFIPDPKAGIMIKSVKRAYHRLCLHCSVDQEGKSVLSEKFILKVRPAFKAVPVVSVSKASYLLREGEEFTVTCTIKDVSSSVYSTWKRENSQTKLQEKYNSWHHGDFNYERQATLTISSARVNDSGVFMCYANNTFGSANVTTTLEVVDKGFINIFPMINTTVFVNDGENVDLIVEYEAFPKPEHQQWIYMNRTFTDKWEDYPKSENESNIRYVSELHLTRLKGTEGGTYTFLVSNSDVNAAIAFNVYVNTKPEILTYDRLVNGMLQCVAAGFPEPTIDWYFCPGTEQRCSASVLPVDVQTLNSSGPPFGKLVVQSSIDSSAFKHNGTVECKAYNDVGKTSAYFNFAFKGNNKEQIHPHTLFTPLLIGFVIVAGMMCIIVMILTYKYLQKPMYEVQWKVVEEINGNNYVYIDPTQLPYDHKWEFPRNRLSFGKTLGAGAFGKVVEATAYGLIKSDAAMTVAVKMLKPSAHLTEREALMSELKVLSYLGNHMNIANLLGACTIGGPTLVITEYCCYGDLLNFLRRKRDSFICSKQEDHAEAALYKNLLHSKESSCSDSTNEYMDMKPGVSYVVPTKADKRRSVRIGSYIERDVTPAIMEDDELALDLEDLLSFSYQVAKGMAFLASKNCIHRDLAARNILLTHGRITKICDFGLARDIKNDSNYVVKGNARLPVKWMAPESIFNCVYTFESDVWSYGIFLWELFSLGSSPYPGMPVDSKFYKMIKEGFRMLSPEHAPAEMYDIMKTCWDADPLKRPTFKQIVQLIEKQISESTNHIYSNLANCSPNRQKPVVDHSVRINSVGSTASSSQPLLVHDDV
# What was measured:
# [1] = molecular target: T1, panel of more than 300 wild-type and mutant kinases (313 kinase panel) (Homo sapiens, UniProt P45985); experiment: Kinase profiling in a biochemical assay panel (mobility shift assays and ELISA), %-inhibition at 1 μM; selectivity entropy; settings: 1 µM
# T1 sequence (P45985 1-399): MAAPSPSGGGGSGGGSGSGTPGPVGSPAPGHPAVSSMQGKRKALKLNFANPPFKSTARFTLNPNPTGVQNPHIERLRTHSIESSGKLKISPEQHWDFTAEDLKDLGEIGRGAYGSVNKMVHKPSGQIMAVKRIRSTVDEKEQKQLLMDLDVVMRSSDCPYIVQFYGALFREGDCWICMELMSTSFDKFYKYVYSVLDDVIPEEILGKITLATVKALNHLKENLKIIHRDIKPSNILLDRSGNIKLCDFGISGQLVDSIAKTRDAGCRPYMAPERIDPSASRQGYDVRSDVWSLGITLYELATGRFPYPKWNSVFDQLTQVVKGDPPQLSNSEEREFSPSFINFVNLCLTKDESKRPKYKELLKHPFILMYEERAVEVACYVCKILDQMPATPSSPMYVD
# [2] = tested on: forty-four human cancer cell lines; experiment: Cell proliferation assay (ATPlite, 72 hours) in the 44 cell line Oncolines panel; settings: A-427, read-out: cell panel IC50, A-427
# [3] = molecular target: panel of more than 300 wild-type and mutant kinases (313 kinase panel) (Homo sapiens, UniProt P10721, V654A); experiment: Kinase profiling in a biochemical assay panel (mobility shift assays and ELISA), %-inhibition at 1 μM; selectivity entropy; settings: kinase KIT(V654A); compound at 1 μM
smiles,measurement,setting,value
CCCS(=O)(=O)Nc1ccc(F)c(C(=O)c2c[nH]c3ncc(-c4ccc(Cl)cc4)cc23)c1F [vemurafenib],%-inhibition of MAP2K4,[1],34%
C#Cc1cccc(Nc2ncnc3cc(OCCOC)c(OCCOC)cc23)c1 [erlotinib],IC50,[2],> 31.6 µM
CNC(=O)c1cc(Oc2ccc(NC(=O)Nc3ccc(Cl)c(C(F)(F)F)c3)c(F)c2)ccn1 [regorafenib],%-inhibition of KIT(V654A),[3],65%
